In the test the test system is MV4-11 cells. The test can be described thus: Cellular proliferation assay (MTS), MV4-11. Particulars: Homo sapiens, MV4-11, 72 h, read-out: Cellular Assay MV-proliferation IC50 (nM).

Data on one compound can be found in patent US8921546B2, “Imidazolothiazole compounds for the treatment of disease” (Ambit Biosciences Corporation, priority 2006, dated 2014).

With `O=C(Nc1ccc(-c2cn3c(n2)sc2cc(OCCN4CCOCC4)ccc23)cc1)Nc1ccc2c(c1)OCO2` [Compound F3], the IC50 is less than 10 nM.
